From patent publication US20110044991A1, “METHODS AND COMPOSITIONS FOR TREATING LYMPHOMA AND MYELOMA” (IRM LLC, priority 2006, published 2011)

What was measured:
[1] = tested on: bone marrow stroma cells from Cdkn2a−/− mice; details: cyclopamine 5 μM, 48 h, light microscopy
Procedure: (§1) In order to investigate whether the Hh signalling pathway does indeed contribute to the survival and proliferation of lymphoma cells growing on an intact stromal layer, lymphoma cells were luciferased using a retrovirus expressing a puromycin/Luc fusion cassette. 2×10E4 lymphoma cells constitutively expressing luciferase were added to each 96-well containing a stromal layer (not expressing luciferase) isolated from Cdkn2a^−/− mice. A total of 34 individual Eμ-Myc-lymphomas and 8 Cdkn2a-lymphomas were tested. A luciferase assay was performed as a readout for cell viability and proliferation and results were also documented by light microscopy.

[2] = tested on: Myc lymphoma cells (p53−/−, Cdkn2a−/−, Bcl2+, Bax−/−, Caspase3−/−); details: 5 μM, 48 h
From the text: Genetically altered mice and culture of primary cells: Eμ-Myc mice (Adams et al., Nature 318: 533-53824, 1985), Cdkna^−/− mice (Serrano et al., Cell. 85:27-3725, 1996), Bax^−/− mice (The Jackson Laboratory, Bar Harbor, Me.), Caspase3^−/− mice (The Jackson laboratory), p53^−/− mice (The Jackson Laboratory) and Bcl2 tg mice (The Jackson laboratory) were maintained and genotyped as described. Eμ-Myc mice and Cdkn2a−/− mice were monitored for signs of disease including development of visible lymphomas or weight loss from more than 15%. Mice with terminal disease were sacrificed, bone marrow, spleen and lymph nodes were extracted and lymphoma cells were propagated under Witlock/Witte culture conditions. For maintained growth cells were transferred on bone marrow stroma from Cdkn2a−/− mice after 2-3 weeks of culture. For generation of lymphomas with defined genetic background, bone marrow from p53−/− mice, Caspase3−/− mice, Bax−/− mice, Cdkn2a−/− mice and Bcl2 tg mice was extracted and pMSCV c-Myc IRES GFP was overexpressed. Propagation of transformed lymphocytes was performed under Witlick/Witte culture conditions and lymphomas were maintained on stroma from Cdkn2a−/− mice. […]

Eμ-Myc lymphoma cells = test: Luciferase assay and light microscopy of luciferased lymphoma cells on stromal layer; type: cell-based, mouse; details: Myc-Ly6; 48 hours; 0, 0.5, 1, 5 and 10 μM
Procedure: For Shh pathway inhibition on stroma, 6200 stroma cells were seeded per 96-well. After 24 hours 20,000 luciferased lymphoma cells were seeded on the stroma cells and 2 hours later compound or DMSO was added. Luciferase assay was performed with Bright-glow reagent as described. To generate cells overexpressing Hh pathway members, lymphoma cells were infected with Smo, Smo 535, Smo 562, Gli1 and Fused-pMSCV IRES GFP constructs and then sorted for GFP positive cells.
as §1

lymphoma cells (Ly9) = details: 50 mg/kg twice a day for 3 days, start 10 days after injection; vs control group
Procedure: D: injection of 1 Mio luciferased lymphoma cells in C57B16 mice.
Immunohistochemistry: Single colour DAB-immunoperoxidase staining was performed as described. Antibodies were obtained from Santa Cruz Biotechnologies (for Shh antibody, N-19), NeoMarkers (for Ki67 antibody) and Promega (for PARP antibody).
Mouse experiments: Black6 mice between 6 and 8 weeks of age were injected with 1 Mio luciferased lymphoma cells. […] Bioluminescence was measured with injection of […].
We next wished to determine the importance of Hh signalling in established lymphomas.

CC1=C2C[C@H]3[C@@H](CC=C4C[C@@H](O)CC[C@@]43C)[C@@H]2CC[C@]12O[C@@H]1C[C@H](C)CN[C@H]1[C@H]2C [cyclopamine] was tested, and the “growth and survival of the stromal layer” value [1] was “not affected”, the viable cells [2] was “no reduction of viable cells” and the “luciferase activity (viable lymphoma cells)” value (Eμ-Myc lymphoma cells) was “reduced in a dose dependant manner”. The “light emission from mice” value (lymphoma cells (Ly9)) was “significantly reduced”.
